Measurements from ChEMBL document CHEMBL4376805, “Plasmodium Purine Metabolism and Its Inhibition by Nucleoside and Nucleotide Analogues” (J Med Chem, 2019).

Biological target: T1, Adenosine deaminase (Plasmodium falciparum, UniProt Q86GS5)
T1 sequence (Q86GS5 whole entry): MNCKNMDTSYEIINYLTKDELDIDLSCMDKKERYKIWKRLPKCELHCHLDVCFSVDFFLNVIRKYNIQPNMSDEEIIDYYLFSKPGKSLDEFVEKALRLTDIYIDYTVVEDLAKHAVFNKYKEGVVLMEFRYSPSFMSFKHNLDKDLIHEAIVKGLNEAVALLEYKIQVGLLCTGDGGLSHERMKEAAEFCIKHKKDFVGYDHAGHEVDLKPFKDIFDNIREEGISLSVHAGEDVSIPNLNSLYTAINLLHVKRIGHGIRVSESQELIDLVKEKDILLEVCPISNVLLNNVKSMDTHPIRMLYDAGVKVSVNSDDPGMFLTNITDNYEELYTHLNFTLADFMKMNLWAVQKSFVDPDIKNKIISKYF
Experiment: Inhibition of Plasmodium falciparum N-terminal thrombin cleavable His6-tagged ADA expressed in Escherichia coli BL21 assessed as equilibrium dissociation constant by measuring reduction in formation of inosine using adenosine as substrate

Q: How did the pKi turn out when `OC[C@H]1O[C@@H](n2cnc3c2NC=NC[C@H]3O)C[C@@H]1O` [PENTOSTATIN] was run?
A: 10.42

pKi: −log10 of the molar value.
